Experimental data: article PMC5109037, “Harnessing Nature’s Diversity: Discovering organophosphate bioscavenger characteristics among low molecular weight proteins” (2016)

Chains of the proteins cited; added tags and fusions are not shown. Residues count along the entry.
UniProt O42275, 24-633 limits assumed: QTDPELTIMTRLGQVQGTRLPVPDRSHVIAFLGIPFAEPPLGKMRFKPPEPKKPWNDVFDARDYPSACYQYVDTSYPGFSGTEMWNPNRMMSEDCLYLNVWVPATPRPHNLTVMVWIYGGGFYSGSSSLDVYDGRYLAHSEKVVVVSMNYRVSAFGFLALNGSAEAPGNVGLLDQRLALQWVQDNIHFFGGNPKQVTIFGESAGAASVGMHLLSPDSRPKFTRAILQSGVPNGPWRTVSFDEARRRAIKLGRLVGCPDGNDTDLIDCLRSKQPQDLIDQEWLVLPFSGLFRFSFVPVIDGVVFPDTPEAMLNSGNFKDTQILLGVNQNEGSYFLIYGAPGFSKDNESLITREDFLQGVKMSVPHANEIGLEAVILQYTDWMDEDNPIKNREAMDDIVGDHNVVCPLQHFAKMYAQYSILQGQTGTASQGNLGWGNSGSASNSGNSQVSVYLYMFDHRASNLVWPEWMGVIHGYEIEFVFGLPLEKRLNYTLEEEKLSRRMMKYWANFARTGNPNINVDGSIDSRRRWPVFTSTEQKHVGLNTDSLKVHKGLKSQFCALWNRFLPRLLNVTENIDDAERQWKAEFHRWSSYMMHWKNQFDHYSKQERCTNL

Assays:
[1] = target: AChE (Electrophorus electricus, UniProt O42275); test: Ellman assay with 0-20 mM acetylthiocholine and 500 uM DTNB in 200 mM NaCl, 20 mM Tris pH 7.4, uninhibited AChE, Michaelis-Menten fit.; conditions: read-out: Km (mM), AChE
[2] = target: Smu. 1393c (Streptococcus mutans, UniProt Q8DTF4); test: Inhibition of Smu. 1393c PNP-ac hydrolysis by demeton-S-methyl

Row | SMILES | Km [1] [mM] | manner of inhibition ([2]; double reciprocal plot) | Ki ([2]; inhibition of PNP-ac hydrolysis activity) [µM]
1 | CC(=O)SCC[N+](C)(C)C | 3.05 |  | 
2 | CCSCCSP(=O)(OC)OC |  | non-competitive | 10.6
